Measurements published in ChEMBL document CHEMBL4680184, “Simple amphiphilic α-hydrazido acids: Rational design, synthesis, and in vitro bioactivity profile of a novel class of potential antimicrobial compounds” (Eur J Med Chem, 2020).

Tested on: Pseudomonas aeruginosa
Details: ATCC 27853

## GENTAMICIN
  MIC: 0.5 µg/mL
